Values of other authors, collected in patent publication US20230117831A1, “MULTI-FUNCTIONAL CHIMERIC MOLECULES” (THE BROAD INSTITUTE, INC., priority 2020, published 2023).

Protein sequences, listed by entry. Tags and fused reporters are not part of them.
UniProt Q99683, whole entry, species assumed: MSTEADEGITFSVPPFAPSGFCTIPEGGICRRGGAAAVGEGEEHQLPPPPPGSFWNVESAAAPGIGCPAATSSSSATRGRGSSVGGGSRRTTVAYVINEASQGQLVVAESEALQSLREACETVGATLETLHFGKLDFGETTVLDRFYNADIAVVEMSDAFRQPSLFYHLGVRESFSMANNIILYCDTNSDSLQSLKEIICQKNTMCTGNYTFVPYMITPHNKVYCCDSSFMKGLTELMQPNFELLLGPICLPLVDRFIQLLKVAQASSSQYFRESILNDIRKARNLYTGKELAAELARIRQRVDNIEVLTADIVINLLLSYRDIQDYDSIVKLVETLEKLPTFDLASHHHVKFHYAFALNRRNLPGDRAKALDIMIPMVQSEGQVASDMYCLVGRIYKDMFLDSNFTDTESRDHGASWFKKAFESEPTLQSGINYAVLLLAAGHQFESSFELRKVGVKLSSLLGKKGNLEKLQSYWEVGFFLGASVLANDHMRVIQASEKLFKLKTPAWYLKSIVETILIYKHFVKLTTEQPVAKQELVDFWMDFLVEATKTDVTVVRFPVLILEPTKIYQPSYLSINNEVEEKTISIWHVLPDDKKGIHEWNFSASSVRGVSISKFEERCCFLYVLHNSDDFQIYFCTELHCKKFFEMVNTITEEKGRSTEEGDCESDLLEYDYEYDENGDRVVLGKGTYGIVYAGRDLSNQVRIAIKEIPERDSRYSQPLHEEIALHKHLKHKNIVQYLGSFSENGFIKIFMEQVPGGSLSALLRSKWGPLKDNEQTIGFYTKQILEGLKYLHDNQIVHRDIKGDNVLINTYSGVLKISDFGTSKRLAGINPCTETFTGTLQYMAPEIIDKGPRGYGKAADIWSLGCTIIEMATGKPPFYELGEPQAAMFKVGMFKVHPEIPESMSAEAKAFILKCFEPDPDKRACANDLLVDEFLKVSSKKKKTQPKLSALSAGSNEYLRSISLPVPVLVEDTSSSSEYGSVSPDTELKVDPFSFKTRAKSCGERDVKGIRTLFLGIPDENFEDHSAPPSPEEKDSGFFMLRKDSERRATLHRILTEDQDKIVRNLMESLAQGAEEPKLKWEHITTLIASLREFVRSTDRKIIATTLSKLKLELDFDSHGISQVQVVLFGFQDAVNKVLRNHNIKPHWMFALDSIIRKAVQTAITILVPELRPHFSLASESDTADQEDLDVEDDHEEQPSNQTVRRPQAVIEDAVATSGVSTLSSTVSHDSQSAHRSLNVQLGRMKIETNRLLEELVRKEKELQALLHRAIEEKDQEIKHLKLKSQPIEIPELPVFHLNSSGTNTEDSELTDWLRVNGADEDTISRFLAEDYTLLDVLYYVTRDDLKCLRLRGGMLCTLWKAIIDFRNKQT

Target: MAP3K5 (Homo sapiens, UniProt Q99683)
Details: cited from earlier work

CN[C@@H]1C[C@H]2O[C@@](C)([C@@H]1OC)n1c3ccccc3c3c4c(c5c6ccccc6n2c5c31)C(=O)NC4 [Staurosporine]
ka: 445000 M⁻¹ s⁻¹
